The target in one experiment is His-PKC-theta (Homo sapiens, UniProt Q04759). The experiment can be described thus: PKC-theta Assay (384-well time resolved fluorescence, IMAP TR-FRET). Format: biochemical. Conditions: read-out: Act. Level (IC50 in the PKC-theta Assay). On the technique in general: Time-resolved FRET reads energy transfer from a long-lived donor to a nearby acceptor.
In another experiment the target is PKC delta (Homo sapiens, UniProt Q05655). The experiment can be described thus: PKC delta Assay (384-well time resolved fluorescence, IMAP TR-FRET). It counts as biochemical. To be noted: selectivity for PKC-theta over PKC-delta.

Chains of the proteins cited; added tags and fusions are not shown.
UniProt Q04759, whole entry: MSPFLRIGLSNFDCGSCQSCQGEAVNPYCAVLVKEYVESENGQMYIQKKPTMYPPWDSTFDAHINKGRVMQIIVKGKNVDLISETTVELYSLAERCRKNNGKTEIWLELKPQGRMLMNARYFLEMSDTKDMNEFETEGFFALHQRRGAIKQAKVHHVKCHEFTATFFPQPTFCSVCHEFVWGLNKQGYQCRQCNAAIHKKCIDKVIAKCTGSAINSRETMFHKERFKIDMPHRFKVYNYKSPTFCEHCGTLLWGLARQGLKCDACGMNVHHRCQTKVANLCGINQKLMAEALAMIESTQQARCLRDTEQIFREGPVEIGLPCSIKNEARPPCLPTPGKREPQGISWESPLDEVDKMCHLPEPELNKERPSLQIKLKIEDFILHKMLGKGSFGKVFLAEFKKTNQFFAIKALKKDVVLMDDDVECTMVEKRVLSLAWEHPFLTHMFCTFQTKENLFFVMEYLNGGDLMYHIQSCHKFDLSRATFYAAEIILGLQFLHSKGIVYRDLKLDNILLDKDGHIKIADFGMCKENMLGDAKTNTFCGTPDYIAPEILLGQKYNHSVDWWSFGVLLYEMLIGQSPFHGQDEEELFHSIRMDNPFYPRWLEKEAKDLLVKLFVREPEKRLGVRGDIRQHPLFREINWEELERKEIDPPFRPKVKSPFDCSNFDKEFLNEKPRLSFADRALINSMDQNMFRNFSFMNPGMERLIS
UniProt Q05655, whole entry: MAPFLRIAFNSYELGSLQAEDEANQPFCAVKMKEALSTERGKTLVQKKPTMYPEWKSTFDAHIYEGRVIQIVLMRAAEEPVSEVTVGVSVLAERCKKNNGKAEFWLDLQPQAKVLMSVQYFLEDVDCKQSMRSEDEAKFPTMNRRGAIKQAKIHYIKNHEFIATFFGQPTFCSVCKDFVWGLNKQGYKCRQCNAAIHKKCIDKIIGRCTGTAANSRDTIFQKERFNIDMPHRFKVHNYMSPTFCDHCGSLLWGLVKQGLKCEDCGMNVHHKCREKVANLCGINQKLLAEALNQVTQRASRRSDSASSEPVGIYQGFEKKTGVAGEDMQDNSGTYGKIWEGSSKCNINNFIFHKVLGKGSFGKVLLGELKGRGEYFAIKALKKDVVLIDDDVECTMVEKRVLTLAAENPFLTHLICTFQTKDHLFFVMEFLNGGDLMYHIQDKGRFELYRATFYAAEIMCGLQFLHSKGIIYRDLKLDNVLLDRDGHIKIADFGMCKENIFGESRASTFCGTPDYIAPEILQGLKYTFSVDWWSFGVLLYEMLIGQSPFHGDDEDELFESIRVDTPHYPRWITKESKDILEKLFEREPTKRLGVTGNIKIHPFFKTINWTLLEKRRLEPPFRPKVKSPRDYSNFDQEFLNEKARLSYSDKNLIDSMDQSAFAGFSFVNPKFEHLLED

SMILES strings stand for the structures. A value given as a limit tells only on which side of the number the result lay.

A word on the IC50: it is the concentration at which inhibition is half-maximal.

As to `CC(F)(F)COc1ncncc1CNc1ncc(C#N)c(N[C@@H]2CC[C@@](C)(O)C(C)(C)C2)n1`, the IC50 at His-PKC-theta was 100 to 800 nM. Moreover, the “Sel. Level (ratio of IC50 PKC-delta/IC50 PKC-theta)” value at PKC delta was “F (selectivity of between 20- and 100-fold (selectivity level F))”.
Consider `CC(F)(F)COc1ncncc1CNc1ncc(C#N)c(N[C@@H]2CC[C@](C)(O)C(C)(C)C2)n1`, for which, at His-PKC-theta, the IC50 is below 100 nM. At PKC delta, the “Sel. Level (ratio of IC50 PKC-delta/IC50 PKC-theta)” value is “E (selectivity (Sel. Level=ratio of IC50 PKC-delta/IC50 PKC-theta) of >100-fold (selectivity level E))”.

The record behind these values is patent US9783505B2, “Substituted diaminopyrimidyl compounds, compositions thereof, and methods of treatment therewith” (Signal Pharmaceuticals, LLC, priority 2013, dated 2017).
